Reference: patent US4264492A, “Enkephalin-like compounds in bovine adrenal medulla” (Hoffmann-La Roche Inc., priority 1979, dated 1981)

Chains of the proteins cited; added tags and fusions are not shown.
UniProt P32300, whole entry: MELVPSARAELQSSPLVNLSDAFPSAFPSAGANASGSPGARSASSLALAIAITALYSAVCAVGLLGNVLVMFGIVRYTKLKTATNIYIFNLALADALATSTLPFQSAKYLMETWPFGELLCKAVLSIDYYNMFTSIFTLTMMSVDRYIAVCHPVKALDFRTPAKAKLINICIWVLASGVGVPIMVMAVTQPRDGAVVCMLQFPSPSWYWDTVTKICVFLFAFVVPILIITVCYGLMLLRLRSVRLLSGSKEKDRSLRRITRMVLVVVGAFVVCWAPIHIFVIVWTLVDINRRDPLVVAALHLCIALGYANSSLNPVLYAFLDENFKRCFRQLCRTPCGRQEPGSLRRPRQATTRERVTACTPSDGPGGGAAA

Molecular target: T1, neuroblastoma x glioma hybrid cells (Mus musculus, UniProt P32300)
T1 construct: The radioreceptor assay employed neuroblastoma x glioma hybrid cells; endogenous in cells; host or cells: neuroblastoma x glioma hybrid cells
Assay: Radioreceptor assay (opioid activity) with ^3 H-Leuenkephalin as the competing ligand
Assay type: binding
Details: fractions from RP-18; 1.3 g wet weight of chromaffin granules isolated from 30 g of adrenal medulla

## Leu-enkephalin [Leu-enk (std)]
  Radioreceptor: 1.0 nmoles/fraction
